Data published in PubChem BioAssay AID720495 (Broad Institute, 2013).
The list shows a part of the results, in another mix than the full data. Records with an inconclusive call do not appear. Active and inactive are the calls of the source. No rule for the calls is given here.

By UniProt entry, the sequences of proteins in these tests, tags left out.
UniProt P42568, whole entry: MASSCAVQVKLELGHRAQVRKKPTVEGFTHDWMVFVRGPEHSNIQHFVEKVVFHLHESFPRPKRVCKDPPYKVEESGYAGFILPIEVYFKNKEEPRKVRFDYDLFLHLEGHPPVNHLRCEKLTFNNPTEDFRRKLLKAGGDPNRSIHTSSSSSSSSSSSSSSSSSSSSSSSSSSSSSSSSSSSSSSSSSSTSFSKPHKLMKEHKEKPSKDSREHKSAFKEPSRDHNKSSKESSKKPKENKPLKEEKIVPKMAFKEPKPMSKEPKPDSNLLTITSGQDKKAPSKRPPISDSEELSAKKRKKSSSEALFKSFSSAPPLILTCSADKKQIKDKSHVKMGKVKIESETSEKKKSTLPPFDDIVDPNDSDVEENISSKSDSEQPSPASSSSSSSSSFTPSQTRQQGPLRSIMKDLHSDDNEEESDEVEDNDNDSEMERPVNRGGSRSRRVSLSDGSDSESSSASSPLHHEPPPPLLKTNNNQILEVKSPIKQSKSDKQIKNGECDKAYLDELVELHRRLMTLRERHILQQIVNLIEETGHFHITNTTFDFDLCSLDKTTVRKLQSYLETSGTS

Target: Protein AF-9 (Homo sapiens) (UniProt P42568)
Test: inhibitors of AF4-AF9 protein interaction, dose response, biochemical, cherry-picked samples, plate reader (AID 720495)
Details: biochemical protein-protein interaction assay, at 10 µM (top of the series)

With CCC(c1nnnn1C1CCCCC1)N1CCC(n2c(=O)[nH]c3ccccc32)CC1 (stereo unspecified) the “activity change, negative = inhibition” value was “inactive”.
